The values that follow come from publication PMC8150020, “Studying the suitability of hybrid micelle liquid chromatography for estimating the lipophilicity of some partial dopamine agonists used to attain the reward circuit” (Royal Society Open Science, 2021).

Series [1] can be described thus: experimental determination of log Pm/w using HMLC. The format is physicochemical. As to conditions: for experimental log Pm/w HMLC: 0.18 M SDS, 10% acetonitrile, 0.3% TEA, pH 6, column 40°C.
Details of series [2]: method as in earlier work. As to conditions: cited from earlier work.

Counter-ions that a name gives are not always drawn. Like-named read-outs stand apart in the source and are kept apart here.

With `CCCN[C@H]1CCc2nc(N)sc2C1` (racemic) [PRM, (RS)-4,5,6,7-tetrahydro-N-6-propyl-2,6-benzothiazolediamine dihydrochloride monohydrate], in series [1], the “experimental log Pm/w HMLC” value is 2.323. For the same compound, the “experimental log Pm/w, column temperature 40°C” value in series [1] (HMLC, pH 6, 40°C) is recorded as 2.323.
With `O=C1CCc2ccc(OCCCCN3CCN(c4cccc(Cl)c4Cl)CC3)cc2N1` [ARP, 7-[4-[4-(2,3-dichlorophenyl)piperazin-1-yl]butoxy]-3,4-dihydro-1H-quinolin-2-one], in series [1], the “experimental log Pm/w HMLC” value is on record as 4.729. Besides, the chromatographic logP stood at 4.62 in series [1] (HMLC, pH 5, 40°C, read-out: log P (experimental log Pm/w) pH 5) and 4.73 in series [1] (HMLC, pH 6, 40°C, read-out: log P (experimental log Pm/w) pH 6). Further, in series [1] (HMLC, pH 6, 35°C), the “experimental log Pm/w, column temperature 35°C” value was 4.46. Further, the “experimental log Pm/w, column temperature 40°C” value in series [1] (HMLC, pH 6, 40°C) came to 4.729. In series [2], the “reported log P” value was 4.6.
